From patent US8299089B2, “Multi-arm polymeric conjugates of 7-ethyl-10-hydroxycamptothecin for treatment of breast, colorectal, pancreatic, ovarian and lung cancers” (priority 2006, dated 2012)

System: rat hepatocytes
Assay: In vitro metabolism in rat hepatocytes
Format: in vitro ADME
Conditions: 2 hours, pH 7.5, 37° C.
Description: PEG-Gly-(7-ethyl-10-hydroxycamptothecin) was incubated with rat hepatocytes for 2 hours, pH 7.5, 37° C.

In the case of “^40k4arm-PEG-Gly(20)-(7-ethyl-10-hydroxycamptothecin) [Compound 9]”, the major metabolites identified is reported as 7-ethyl-10-hydroxycamptothecin and 7-ethyl-10-hydroxycamptothecin-Glucuronide.
